From PubChem BioAssay AID720711 (National Center for Advancing Translational Sciences (NCATS), 2013) come the findings set out here.

The chains behind the UniProt entries cited, without tags or fusion partners.
UniProt Q8WZA2, whole entry: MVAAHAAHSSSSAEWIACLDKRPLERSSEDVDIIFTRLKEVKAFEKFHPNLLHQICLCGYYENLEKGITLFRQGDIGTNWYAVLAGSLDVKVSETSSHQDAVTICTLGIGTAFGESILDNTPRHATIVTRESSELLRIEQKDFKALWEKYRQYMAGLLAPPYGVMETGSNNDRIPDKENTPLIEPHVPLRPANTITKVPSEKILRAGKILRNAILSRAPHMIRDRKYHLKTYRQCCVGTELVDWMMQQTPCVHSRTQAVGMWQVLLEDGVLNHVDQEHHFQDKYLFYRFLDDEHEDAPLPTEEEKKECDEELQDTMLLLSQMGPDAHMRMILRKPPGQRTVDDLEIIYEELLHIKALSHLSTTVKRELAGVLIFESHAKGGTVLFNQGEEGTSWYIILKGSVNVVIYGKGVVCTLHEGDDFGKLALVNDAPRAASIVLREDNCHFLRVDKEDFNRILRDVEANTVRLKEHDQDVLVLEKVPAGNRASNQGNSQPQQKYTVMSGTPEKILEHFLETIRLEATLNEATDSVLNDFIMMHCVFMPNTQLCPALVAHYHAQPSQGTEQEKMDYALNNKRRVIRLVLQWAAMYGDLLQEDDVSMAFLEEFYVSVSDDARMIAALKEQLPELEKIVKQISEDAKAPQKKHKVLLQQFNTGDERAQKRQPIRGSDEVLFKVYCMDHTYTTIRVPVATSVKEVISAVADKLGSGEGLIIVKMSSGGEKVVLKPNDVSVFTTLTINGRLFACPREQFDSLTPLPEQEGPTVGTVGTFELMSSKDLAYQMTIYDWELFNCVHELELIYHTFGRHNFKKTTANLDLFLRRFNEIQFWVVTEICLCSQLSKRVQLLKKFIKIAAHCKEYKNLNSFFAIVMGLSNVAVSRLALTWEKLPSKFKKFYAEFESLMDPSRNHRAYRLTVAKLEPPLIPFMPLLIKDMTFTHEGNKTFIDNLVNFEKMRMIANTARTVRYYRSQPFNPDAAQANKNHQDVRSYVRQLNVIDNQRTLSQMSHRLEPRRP

SMILES strings stand for the structures. Only a part is listed here, and it is no random draw. The source made the active and inactive calls. The call rests on the fitted dose curve; in most records, active means well fitted activation curve with a large enough effect; inconclusive means small, poorly fitted or top-dose-only effect; inactive means no such curve, though single readings can be large or run the other way.

The experiment deals with Rap guanine nucleotide exchange factor 4 (Homo sapiens) (UniProt Q8WZA2). The experiment can be described thus: qHTS for Agonist of cAMP-regulated guanine nucleotide exchange factor 4 (EPAC2): primary screen. Further: nearly all actives have a fitted effect of over 50% in size. To be noted: biochemical qHTS, 100% = 6.5 mM cAMP response; at 154 µM (top of the series). An outline of the steps:
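Fluorescence exchange assay: 100 nM EPAC2 with 250 nM RAP1B-BODIPY-GDP and 50 uM GDP; compounds tested as a concentration-titration series (qHTS). Loss of Rap1-bound BODIPY-GDP fluorescence read at 480/540 nm; data normalized to 6.5 mM cAMP.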
As to `COc1cccc(C(c2nnnn2C2CCCCC2)N2CCC(n3c(=O)[nH]c4ccccc43)CC2)c1OC` (stereo unspecified), the activation was inactive: 4.89%.

On to `CC(=O)N(c1ccccc1)C1CCNCC1`, for which the activation is inactive: 4.43%.

Regarding `O=c1[nH]c2ccccc2n1C1CCN(C(c2ccnc3ccccc23)c2nnnn2C2CCCCC2)CC1` (stereo unspecified), the activation is inactive: 2.81%.

Regarding `CC(C)(C)n1nnnc1C(c1cccc2ccccc12)N1CCC(n2c(=O)[nH]c3ccccc32)CC1` (stereo unspecified), the activation is inactive: 11.3%.

For the molecule `CN(C)C1(CNC(=O)c2cccc(C#N)c2)CCCCC1`, the activation is inactive: -6.81%.

`CCCN1CCC(Nc2cc(OC)cc(OC)c2)CC1`: the activation was inactive: 1.58%.

Regarding `O=c1[nH]c2ccccc2n1C1CCN(C(c2ccccc2)c2nnnn2C2CCCC2)CC1` (stereo unspecified), the activation is inactive: 12.7%.

Consider `Cc1cc(N(CCCl)CCCl)ccc1C=O`, for which the activation is inactive: 2.49%.

As for `c1ccc(CN2CCC(Nc3ccccc3)CC2)cc1`, the activation is inactive: -0.693%.

Take `CCOC(=O)C(CC)C1=NC(C)(C)Cc2ccccc21.O=[N+]([O-])c1cc([N+](=O)[O-])c(O)c([N+](=O)[O-])c1` (stereo unspecified): the activation is inactive: 5.16%.

For `N#Cc1ccc(C(=O)NCC2(N3CCCCC3)CCCCC2)cc1`, the activation was inactive: 7.06%.

`CC(C)(C)OC(=O)N1CCC(N(C(=O)c2ccccc2)c2ccc(Cl)cc2)CC1`: the activation is inactive: 6.17%.

`O=C(O)c1cccc(Nc2c([N+](=O)[O-])cc([N+](=O)[O-])cc2[N+](=O)[O-])c1`: the activation was inactive: -2.91%.

Regarding `O=c1[nH]c2ccccc2n1C1CCN(C(c2cccs2)c2nnnn2C2CCCC2)CC1` (stereo unspecified), the activation was inactive: 7.29%.

Turning to `CCc1cc(C(=O)NCC2(N3CCCCC3)CCCCC2)sc1C`, the activation was inactive: -12.5%.

`O=C(OC1CN2CCC1CC2)C1c2ccccc2C=Cc2ccccc21` (stereo unspecified): the activation is inactive: 6.31%.

For the molecule `CCCCn1nnnc1C(c1cccc(OC)c1OC)N1CCC(n2c(=O)[nH]c3ccccc32)CC1` (stereo unspecified), the activation was inactive: 16%.

With `CCOC(=O)N1CCC(Nc2ccc(C)cc2)CC1`, the activation is inactive: 2.2%.

On to `COc1cccc(C(c2nnnn2C(C)(C)C)N2CCC(n3c(=O)[nH]c4ccccc43)CC2)c1OC` (stereo unspecified), for which the activation is inactive: 2.48%.

In the case of `N/C(=N\O)c1c(N)no[n+]1[O-]`, the activation is inactive: -0.0719%.

As for `O=c1[nH]c2ccccc2n1C1CCN(C(c2cccs2)c2nnnn2C2CCCCC2)CC1` (stereo unspecified), the activation was inactive: 9.27%.

For the molecule `O=c1[nH]c2ccccc2n1C1CCN(C(c2ccnc3ccccc23)c2nnnn2C2CCCC2)CC1` (stereo unspecified), the activation was inactive: 15.7%.

In the case of `COc1ccc(C(=O)NCC2(N3CCOCC3)CCCCC2)cc1OC`, the activation was inactive: 3.54%.

Regarding `COc1cc(C(=O)NCC2(N3CCOCC3)CCCCC2)cc(OC)c1C`, the activation was inactive: -3.96%.

As to `CCCCn1nnnc1C(c1ccccc1)N1CCC(n2c(=O)[nH]c3ccccc32)CC1` (stereo unspecified), the activation is inactive: 7.93%.

`O=C(NCC1(N2CCOCC2)CCCCC1)c1cc(Br)ccc1Cl`: the activation was inactive: -1.24%.
